Results from patent US20090081314A1, “Glycemic Control, Diabetes Treatment, and Other Treatments with Acetyl Cholinesterase Inhibitors” (priority 2007, published 2009).
“Also recorded” adds a separate entry of the source.

Test: Side effects of acetyl cholinesterase inhibitor treatment in patients (case studies)

COc1cc2c(cc1OC)C(=O)C(CC1CCN(Cc3ccccc3)CC1)C2 (stereo not shown) [donepezil]
side effects of treatment (individual patient, donepezil 5 mg daily, increased to 10 mg daily): no untoward side effects; also recorded: no negative side effects
side effects of treatment (individual patient, donepezil 5 mg orally daily): no adverse side effects were noted; also recorded: no negative side effects; also recorded: without any negative side effects; also recorded: no untoward side effects; also recorded: tolerated the donepezil well; also recorded: no fevers, infections or untoward side effects; also recorded: no symptoms of diarrhea, nausea or polyuria; also recorded: with adverse side effects
side effects of treatment (patient nineteen, donepezil 2.5 mg three times a week): no untoward side effects
episodes of hypoglycemia (patient twelve, donepezil 5 mg orally daily with oral hypoglycemic agents): no episodes of hypoglycemia
